Experimental data from PubChem BioAssay AID894 (National Center for Advancing Translational Sciences (NCATS), 2007).
Only a part is listed here, and it is no random draw. Inconclusive results are not listed. Active and inactive are the calls of the source. Calls come from the whole dose curve; as a rule, active = well fitted inhibition curve with a large enough effect (not every such curve was filed as active); inconclusive = small, poorly fitted or top-dose-only effect, or another doubt; inactive = no such curve, though single readings can be large or run the other way.

Sequences of proteins named here, by UniProt entry; tags and fusion partners are left off. A change or cut given only in a name is not applied to a line headed by its entry.
UniProt P15428: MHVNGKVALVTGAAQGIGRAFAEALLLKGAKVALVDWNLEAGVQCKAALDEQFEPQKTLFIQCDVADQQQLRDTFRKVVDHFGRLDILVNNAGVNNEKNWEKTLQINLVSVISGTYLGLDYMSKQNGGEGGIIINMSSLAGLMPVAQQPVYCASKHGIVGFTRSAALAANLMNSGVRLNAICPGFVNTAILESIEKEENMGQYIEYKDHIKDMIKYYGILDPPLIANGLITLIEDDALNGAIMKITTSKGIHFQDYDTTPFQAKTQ

What follows are compounds tested against 15-hydroxyprostaglandin dehydrogenase [NAD(+)] (Homo sapiens) (UniProt P15428) (assay: qHTS Assay for Inhibitors of HPGD (15-Hydroxyprostaglandin Dehydrogenase)). Conditions: purified HPGD, NADH fluorescence kinetic, PGE2 substrate.
Potency is the fitted concentration of half-maximal effect.

SMILES	Potency
O=P1(Nc2ccccn2)COc2ccccc2OC1	active: 5.62 µM
O=P1(Nc2ncccn2)COc2ccccc2OC1	active: 25.1 µM
O=P1(Nc2ccc(Br)cn2)COc2ccccc2OC1	active: 15.8 µM
O=P(Nc1nccs1)(c1ccccc1)c1nc2ccccc2s1 (configuration not stated)	active: 0.891 µM
Oc1c(Cl)c(Cl)c(Cl)c(Cl)c1Cl	active: 14.1 µM
Cc1c2c(nc3ccccc13)SC(C(Cl)Cl)C2 (configuration not stated)	active: 25.1 µM
Cc1cc(SC(NC(=O)c2ccccc2)C(Cl)(Cl)Cl)nc(C(C)C)n1 (configuration not stated)	active: 17.8 µM
